What was measured:
[1] = Terminal half life of the compound at pH 7 in bis-tris buffer by 31P NMR method
[2] = Half life of the compound at pH 7 in phosphate buffer by 31P NMR method
[3] = Half life of the compound at pH 7.4 by 31P NMR method
[4] = Half life of the compound at pH 6 by 31P NMR method
[5] = Half life of the compound at pH 9 by 31P NMR method
[6] = Dissociation constant, pKa of the compound by Henderson-Hasselbalch equation
[7] = Dissociation constant, pKa of the compound at 4 degC

NP(=O)(O)N(CCCl)CCCl
beta t1/2 [1]: 50 min | t1/2 [2]: 48 min | t1/2 [3]: 13 min | t1/2 [4]: 100 min | t1/2 [5]: 20 min | pKa [6]: 4.75 | pKa [7]: 4.8

— ChEMBL document CHEMBL3244178, “31P NMR investigations of phosphoramide mustard: evaluation of pH control over the rate of intramolecular cyclization to an aziridinium ion and the hydrolysis of this reactive alkylator” (1979)
